The record followed here is patent publication US20240207313A1.

Where “and” joins values, the source holds several entries; their conditions need not be identical. Equal entries are not always repeated.

In this assay the target is T-cell surface glycoprotein CD4 [Homo sapiens] (Homo sapiens) (UniProt P01730). The assay is described as follows: cell-based or functional assay.

For the substance “CART4 anti-CD4 chimeric antigen receptor (scFv of monoclonal antibody Hu5A8, CD8a hinge/transmembrane domain, CD28, 4-1BB and CD3 zeta signalling domains), expressed on transduced human T cells”, the ablation of CD4+ malignant cells in ATLL patient PBMCs, 4-hour co-culture worked out at 80%; the lysis of CD4+ cells in autologous PBMCs, E:T 3:1, 4-hour co-culture stood at 94%; the reduction of malignant T cells in primary CTCL samples, 4-hour co-culture was 60% and 80%.
